scFv variants of Ab-95 (light chain) against a SARS-CoV-2 spike peptide

From the AlphaSeq antibody data of Engelhart et al. 2022 (doi:10.1038/s41597-022-01779-4), copy in the FLAb collection.

All variants were tested on one target, the spike HR2 peptide PDVDLGDISGINAS (SARS-CoV-2).

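The starting antibody came from a phage panning campaign against this peptide. Library AAYL52 holds single substitutions and randomly drawn double and triple substitutions in the CDRs. In AlphaSeq, yeast of one mating type display the scFv and yeast of the other type display the target. Pairs that bind mate more often; barcode pairs of the diploids are counted by sequencing. Scores were corrected for input abundance and mapped to Kd with protein pairs of known affinity run in the same pool. Mating was done three times.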

Parent scFv Ab-95: VH joined to VL by a (GGGGS)3 linker. Changes lie in the light chain CDRs alone.
VH: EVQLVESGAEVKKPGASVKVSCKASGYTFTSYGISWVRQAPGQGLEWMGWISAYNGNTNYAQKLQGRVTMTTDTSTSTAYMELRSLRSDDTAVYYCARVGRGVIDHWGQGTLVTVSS
VL: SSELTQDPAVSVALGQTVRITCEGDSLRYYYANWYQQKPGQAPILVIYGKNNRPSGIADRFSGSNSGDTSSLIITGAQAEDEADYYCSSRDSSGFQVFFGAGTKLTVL

Positions count from residue 1 of the parent VL; S88G puts G in place of S. This list gathers variants with a substitution at S88 (VL, numbered from residue 1). Values are apparent Kd, the geometric mean of the replicates that gave a signal; lower means stronger binding. Where no diploid with the target was found in any replicate, the entry reads "nd": below detection, most likely a poor binder, though not proof of it. Three control strains display no target. For library AAYL52, 28% of the pairings with them gave a signal, with a median of 8.2 µM and one signal in twenty below 800 nM, so weak values seen in few replicates may be background.

With S88G+Q96S+F98H the result was 850 nM (3 of 3 replicates). For G24N+G49L+S88C, the assay gave 14 µM (1 of 3 replicates). With D25V+Y31L+S88M the result was 69 nM (3 of 3 replicates). For L27S+S88D+F95G, the assay gave 7.1 µM (2 of 3 replicates). Variant Y31K+N33G+S88G showed 6.3 µM (3 of 3 replicates).

Variant G49L+S88L showed 6.5 µM (2 of 3 replicates). Variant A32H+R53P+S88P gave 40 µM (1 of 3 replicates). With S88A the result was 420 nM (3 of 3 replicates). Variant Y29R+S88E+R90E gave 700 nM (3 of 3 replicates). Variant G24D+N52S+S88G gave 1.8 µM (2 of 3 replicates).

For R53L+S88C+F98M, the assay gave 7.7 µM (3 of 3 replicates). For Y30M+S88K, the assay gave 54 nM (3 of 3 replicates). With R53L+S88F+G94V the result was nd (0 of 3 replicates). Variant S88W+F98A showed 2.2 µM (1 of 3 replicates). For A32C+S88K+G94M, the assay gave 1.2 µM (3 of 3 replicates).

Variant S55M+S88R+R90N showed 98 µM (2 of 3 replicates). With S26M+R53L+S88D the result was 12 µM (2 of 3 replicates). With Y30L+N51H+S88A the result was 5.4 µM (1 of 3 replicates). For S88C+S93M+F98A, the assay gave 15 µM (2 of 3 replicates). Variant D25W+S88R+S92G showed nd (0 of 3 replicates).

With L27V+P54N+S88K the result was 11 µM (1 of 3 replicates). Variant Y31I+S88Y+V97Q showed 15 µM (1 of 3 replicates). Variant E23W+S88C+S89C showed 4.8 µM (3 of 3 replicates). For Y30N+A32T+S88H, the assay gave nd (0 of 3 replicates). Variant Y30L+S88T+S92M showed 1.0 µM (3 of 3 replicates).

Variant A32D+S88T+F98S showed nd (0 of 3 replicates). Variant D25P+S88T+F95Y showed 9.4 µM (1 of 3 replicates). With E23I+Y29Q+S88Q the result was 2.3 µM (3 of 3 replicates). Variant P54E+S88W+F98S gave 580 nM (3 of 3 replicates). For R28I+A32R+S88W, the assay gave 88 µM (1 of 3 replicates).

For S26I+Y29R+S88C, the assay gave 310 nM (3 of 3 replicates). For Y30T+N51V+S88T, the assay gave 420 nM (3 of 3 replicates). Variant S26A+S88F+Q96P gave 24 µM (1 of 3 replicates). Variant S26I+S88H+F98C gave 66 nM (3 of 3 replicates). Variant G24R+L27W+S88C gave 3.8 µM (3 of 3 replicates).